{"source": "patent US20260232826A1", "about": "“ANTIBODY-DRUG CONJUGATES AND THEIR USES” (Mablink Bioscience, priority 2022, published 2026)", "test": "Dose-range-finding toxicology study in cynomolgus monkeys", "format": "in vivo, cynomolgus monkeys (Macaca fascicularis)", "procedure": "A nonhuman primate dose-range-finding toxicology study was conducted using purpose-bred native female cynomolgus monkeys (Macaca fascicularis) of Vietnam origin. The study was performed at Cynbiose SAS (Marcy-I'Étoile, France). The study protocol was approved by the testing facility Institutional Animal Care and Use Committee. […] Two female monkeys/group were used in the study (total of 8 animals). Following terminal sacrifice 5 days after the last administration, gross necropsy, measurement of organ weights and histopathologic examinations were conducted. Parameters evaluated during the study included mortality, clinical signs (including estimation of food consumption), body weights, ophthalmology examinations, body temperature, hematology, coagulation, clinical chemistry, urinalysis, organ weights, and macroscopic and microscopic examinations of an extensive list of tissues. ADC formulation buffer was 20 mM histidine pH 6.0, 4% (w/v) sucrose and 75 mM NaCl. Vehicle was saline 0.9%.", "data": [{"molecule": "F-LALA-VA-EXA (conjugate, N-methyl) heavy: EVQLVESGGGVVQPGRSLRLSCSASGFTFSGYGLSWVRQAPGKGLEWVAMISSGGSYTYYADSVKGRFAISRDNAKNTLFLQMDSLRPEDTGVYFCARHGDDPAWFAYWGQGTPVTVSSASTKGPSVFPLAPSSKSTSGGTAALGCLVKDYFPEPVTVSWNSGALTSGVHTFPAVLQSSGLYSLSSVVTVPSSSLGTQTYICNVNHKPSNTKVDKKV[gap - human IgG1 Fc with changes] light: DIQLTQSPSSLSASVGDRVTITCSVSSSISSNNLHWYQQKPGKAPKPWIYGTSNLASGVPSRFSGSGSGTDYTFTISSLQPEDIATYYCQQWSSYPYMYTFGQGTKVEIKRTVAAPSVFIFPPSDEQLKSGTASVVCLLNNFYPREAKVQWKVDNALQSGNSQESVTEQDSKDSTYSLSSTLTLSKADYEKHKVYACEVTHQGLSSPVTKSFNRGEC", "values": [{"measurement": "tolerability in cynomolgus monkeys at 60 mg/kg", "setting": "IV 60 mg/kg", "value": "not tolerated because of acute kidney failure in one of the two animals"}, {"measurement": "tolerability in cynomolgus monkeys", "setting": "IV 30, 40, 50 or 60 mg/kg, 3 doses at three-week interval", "value": "well tolerated"}, {"measurement": "estimated highest non-severely toxic dose (HNSTD)", "setting": "IV, three-week interval, thrice (FIG. 22)", "value": 50, "unit": "mg/kg"}]}]}
